Data reported in article PMC4286029 (Inflammation Research, 2014).

Protein sequences, listed by entry. Tags and fused reporters are not part of them. Residues count along the entry.
UniProt P23458, 850-1154 limits assumed: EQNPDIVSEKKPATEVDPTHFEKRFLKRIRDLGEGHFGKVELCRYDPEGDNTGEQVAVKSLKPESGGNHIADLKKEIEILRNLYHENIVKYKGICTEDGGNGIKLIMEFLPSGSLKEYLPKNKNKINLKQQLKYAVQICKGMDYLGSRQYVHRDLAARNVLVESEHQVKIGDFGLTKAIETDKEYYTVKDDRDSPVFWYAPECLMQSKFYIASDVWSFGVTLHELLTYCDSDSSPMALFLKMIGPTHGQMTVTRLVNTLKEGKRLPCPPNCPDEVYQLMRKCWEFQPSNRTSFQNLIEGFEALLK
UniProt O60674, 808-1132 limits assumed: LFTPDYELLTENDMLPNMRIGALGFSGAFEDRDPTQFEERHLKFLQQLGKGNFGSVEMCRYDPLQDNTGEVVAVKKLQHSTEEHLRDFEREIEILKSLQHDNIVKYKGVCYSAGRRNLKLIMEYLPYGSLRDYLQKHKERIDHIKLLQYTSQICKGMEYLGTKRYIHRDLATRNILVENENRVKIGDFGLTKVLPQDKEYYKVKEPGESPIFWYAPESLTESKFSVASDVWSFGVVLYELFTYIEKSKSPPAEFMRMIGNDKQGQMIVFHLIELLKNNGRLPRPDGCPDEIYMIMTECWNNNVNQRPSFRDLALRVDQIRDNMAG
UniProt P52333, 781-1124 limits assumed: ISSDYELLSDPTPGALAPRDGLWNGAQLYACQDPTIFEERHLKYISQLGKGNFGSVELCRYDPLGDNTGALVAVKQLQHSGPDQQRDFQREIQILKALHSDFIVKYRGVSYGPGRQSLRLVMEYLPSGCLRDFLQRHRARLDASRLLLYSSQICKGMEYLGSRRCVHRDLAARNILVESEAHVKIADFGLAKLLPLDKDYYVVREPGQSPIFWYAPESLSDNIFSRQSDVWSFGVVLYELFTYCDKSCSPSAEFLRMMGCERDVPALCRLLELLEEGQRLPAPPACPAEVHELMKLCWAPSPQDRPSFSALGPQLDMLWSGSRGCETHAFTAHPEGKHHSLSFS
UniProt P29597, 871-1187 limits assumed: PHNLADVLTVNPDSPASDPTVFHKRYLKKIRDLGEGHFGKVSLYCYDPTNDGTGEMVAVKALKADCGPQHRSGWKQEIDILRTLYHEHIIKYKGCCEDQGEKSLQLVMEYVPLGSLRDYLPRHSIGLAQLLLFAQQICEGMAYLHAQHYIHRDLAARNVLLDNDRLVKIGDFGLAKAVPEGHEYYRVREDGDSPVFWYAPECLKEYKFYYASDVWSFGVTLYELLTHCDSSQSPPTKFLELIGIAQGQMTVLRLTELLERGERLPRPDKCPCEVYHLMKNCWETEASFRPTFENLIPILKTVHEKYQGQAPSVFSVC

How the values were obtained:
human JAK1 [1] = biological target: T1, human JAK1 (Homo sapiens, UniProt P23458); conditions: Lineweaver–Burk plots
human JAK2 = human JAK2 (Homo sapiens, UniProt O60674)
human JAK3 [2] = biological target: T2, human JAK3 (Homo sapiens, UniProt P52333)
human Tyk2 [3] = biological target: T3, human Tyk2 (Homo sapiens, UniProt P29597); conditions: Lineweaver–Burk plots
human B cells = experiment: cells; conditions: B-cell, 72 h, read-out: IC50, IL-21 plus anti-CD40 induced B cell proliferation
human JAK1 [4] = biological target: T1, human JAK1; experiment: biochemical; conditions: JAK1, mean ± SEM, three experiments
human JAK3 [5] = biological target: T2, human JAK3; experiment: biochemical
human Tyk2 [6] = biological target: T3, human Tyk2; experiment: biochemical; conditions: Tyk2, mean ± SEM, three experiments

Q: With `C[C@H]1CN(C(=O)CC#N)[C@]12CCN(c1ncnc3[nH]ccc13)C2` [JTE-052] as the compound, how does the “inhibition mode, JAK1” value (human JAK1 [1]) read?
A: competitive with ATP

Q: And the “inhibition mode, JAK2” value (human JAK2)?
A: competitive with ATP

Q: What about the “inhibition mode, JAK3” value (human JAK3 [2]) of the same compound?
A: competitive with ATP

Q: What about the “inhibition mode, Tyk2” value (human Tyk2 [3]) of the same compound?
A: competitive with ATP

Q: And the IC50 (human B cells)?
A: 49 ± 6 nM

Q: And the Ki (human JAK1 [4]; Ki)?
A: 2.1 ± 0.3 nM

Q: What about the Ki (human JAK1 [4]; pKi) of the same compound?
A: 2 nM

Q: And the Ki (human JAK3 [5])?
A: 5.5 ± 0.3 nM

Q: And the Ki (human Tyk2 [6]; Ki)?
A: 14 ± 1 nM

Q: And the Ki (human Tyk2 [6]; pKi)?
A: 12.6 nM
